Assay results reported in patent US10376524B2, “Use of GABAA receptor antagonists for the treatment of excessive sleepiness and disorders associated with excessive sleepiness” (EMORY UNIVERSITY, priority 2008, dated 2019).

By UniProt entry, the sequences of proteins in these tests, tags left out. Residues count along the entry.
UniProt P14867, 28-456: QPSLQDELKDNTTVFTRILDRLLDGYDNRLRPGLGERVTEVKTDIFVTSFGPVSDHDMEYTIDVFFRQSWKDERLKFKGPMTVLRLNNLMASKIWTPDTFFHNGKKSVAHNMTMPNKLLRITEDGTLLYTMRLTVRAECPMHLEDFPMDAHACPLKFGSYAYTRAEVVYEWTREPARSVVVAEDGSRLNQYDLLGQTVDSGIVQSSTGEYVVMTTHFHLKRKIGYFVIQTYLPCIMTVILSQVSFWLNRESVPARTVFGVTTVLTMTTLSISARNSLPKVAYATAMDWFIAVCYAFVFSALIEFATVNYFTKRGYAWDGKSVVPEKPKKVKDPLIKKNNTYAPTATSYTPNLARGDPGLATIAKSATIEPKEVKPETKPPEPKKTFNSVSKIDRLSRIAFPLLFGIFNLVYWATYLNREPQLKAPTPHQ
UniProt P18507, 40-467 isoform P18507-1 limits assumed: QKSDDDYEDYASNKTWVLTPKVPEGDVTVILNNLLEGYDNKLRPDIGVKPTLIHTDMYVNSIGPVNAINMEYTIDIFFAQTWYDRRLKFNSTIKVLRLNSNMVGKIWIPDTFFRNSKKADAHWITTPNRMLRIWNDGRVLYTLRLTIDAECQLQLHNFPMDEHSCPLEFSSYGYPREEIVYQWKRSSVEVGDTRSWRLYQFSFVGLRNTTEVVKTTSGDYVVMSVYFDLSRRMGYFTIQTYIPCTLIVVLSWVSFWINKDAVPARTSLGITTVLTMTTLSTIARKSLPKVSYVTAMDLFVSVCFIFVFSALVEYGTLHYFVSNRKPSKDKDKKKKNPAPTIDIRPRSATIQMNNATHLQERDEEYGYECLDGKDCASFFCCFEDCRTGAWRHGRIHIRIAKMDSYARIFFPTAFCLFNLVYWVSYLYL
UniProt P47870, 26-512: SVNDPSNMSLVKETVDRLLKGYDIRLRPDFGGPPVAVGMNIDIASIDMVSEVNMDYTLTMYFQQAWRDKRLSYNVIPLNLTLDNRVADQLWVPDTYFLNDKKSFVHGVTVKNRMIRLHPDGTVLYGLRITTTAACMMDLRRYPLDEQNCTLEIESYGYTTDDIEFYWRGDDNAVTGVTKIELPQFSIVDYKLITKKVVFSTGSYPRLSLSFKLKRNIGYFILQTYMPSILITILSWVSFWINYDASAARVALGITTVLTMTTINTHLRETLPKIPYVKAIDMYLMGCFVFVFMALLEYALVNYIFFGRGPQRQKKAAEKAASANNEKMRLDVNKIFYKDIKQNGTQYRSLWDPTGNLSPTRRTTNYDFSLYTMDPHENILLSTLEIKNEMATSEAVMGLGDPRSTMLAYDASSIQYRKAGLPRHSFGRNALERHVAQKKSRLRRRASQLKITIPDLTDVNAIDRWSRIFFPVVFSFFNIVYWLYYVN

How the values were obtained:
[1] = tested on: Patient AS99 (idiopathic hypersomnia); experiment: Pittsburgh Sleep Quality Index, patient AS99 on sublingual flumazenil; conditions: 1 month post, pre-treatment 4
hypersomnic patients [2] = experiment: Psychomotor Vigilance Task (PVT) after intravenous flumazenil; assay type: in vivo, human; conditions: for number of lapses relative to baseline: group
[3] = biological target: human α1β2γ2s GABAA receptor (Homo sapiens, UniProt P14867+P18507+P47870); conditions: following 12 mg sublingual formulation of flumazenil; FIG. 2
hypersomnic patients [4] = tested on: hypersomnic patients

- enhancement of GABAA receptor function by subject's plasma [3]: Enhancement is reduced
SMILES: CCOC(=O)c1ncn2c1CN(C)C(=O)c1cc(F)ccc1-2 [flumazenil]
- Pittsburgh Sleep Quality Index [1]: 2
- number of lapses relative to baseline (hypersomnic patients [2]; high dose, t=3.51, p=0.039): decreased
- median RTs relative to baseline (hypersomnic patients [2]; low dose, group of five cases, t=2.56, p=0.063): decreases
- number of lapses relative to baseline (hypersomnic patients [2]; low dose, t=3.03, p=0.056): decreased
- mean relative Gamma Power (hypersomnic patients [4]; subject DS122, 0.5 mg, 30 minutes after treatment, saline 0.0124): 0.0142
- mean relative Beta Power (hypersomnic patients [4]; subject DS122, 0.5 mg, 30 minutes after treatment, saline 0.1011): 0.1165
- mean relative Alpha Power (hypersomnic patients [4]; subject DS122, 0.5 mg, 30 minutes after treatment, saline 0.1966): 0.2183
- mean relative Theta Power (hypersomnic patients [4]; subject DS122, 0.5 mg, 30 minutes after treatment, saline 0.2777): 0.2995
- mean relative Delta Power (hypersomnic patients [4]; subject DS122, 0.5 mg, 30 minutes after treatment, saline 0.4122): 0.3515
- mean relative Gamma Power (hypersomnic patients [4]; subject DS122, 2.0 mg, 30 minutes after treatment, saline 0.0124): 0.0157
- mean relative Beta Power (hypersomnic patients [4]; subject DS122, 2.0 mg, 30 minutes after treatment, saline 0.1011): 0.1141
- mean relative Alpha Power (hypersomnic patients [4]; subject DS122, 2.0 mg, 30 minutes after treatment, saline 0.1966): 0.1798
- mean relative Theta Power (hypersomnic patients [4]; subject DS122, 2.0 mg, 30 minutes after treatment, saline 0.2777): 0.3776
- mean relative Delta Power (hypersomnic patients [4]; subject DS122, 2.0 mg, 30 minutes after treatment, saline 0.4122): 0.3128
- mean relative Delta Power (hypersomnic patients [4]; subject ED102, 0.5 mg, 10 min segment 30 minutes after treatment, saline 0.5314): 0.5199
- mean relative Gamma Power (hypersomnic patients [4]; subject ED102, 0.5 mg, 30 minutes after treatment, saline 0.0565): 0.0642
- mean relative Alpha Power (hypersomnic patients [4]; subject ED102, 0.5 mg, 30 minutes after treatment, saline 0.1090): 0.1017
- mean relative Beta Power (hypersomnic patients [4]; subject ED102, 0.5 mg, 30 minutes after treatment, saline 0.1207): 0.1387
- mean relative Theta Power (hypersomnic patients [4]; subject ED102, 0.5 mg, 30 minutes after treatment, saline 0.1824): 0.1755
- mean relative Gamma Power (hypersomnic patients [4]; subject ED102, 2.0 mg, 30 minutes after treatment, saline 0.0565): 0.1032
- mean relative Alpha Power (hypersomnic patients [4]; subject ED102, 2.0 mg, 30 minutes after treatment, saline 0.1090): 0.0866
- mean relative Beta Power (hypersomnic patients [4]; subject ED102, 2.0 mg, 30 minutes after treatment, saline 0.1207): 0.1803
- mean relative Theta Power (hypersomnic patients [4]; subject ED102, 2.0 mg, 30 minutes after treatment, saline 0.1824): 0.1479
- mean relative Delta Power (hypersomnic patients [4]; subject ED102, 2.0 mg, 30 minutes after treatment, saline 0.5314): 0.4820

Read-outs that look alike come from different tables or passages of the source.
